In the experiment the test system is human platelets. As to the kind of experiment: Platelet activation by FACS (PAC-1 antibody binding or surface P-selectin). Format: cell-based.

Where two headings read alike, the source gives them in different places.

As for `Cc1onc(O)c1C[C@H](N)C(=O)O` [AMPA, alpha(α)-amino-3-hydroxy-5-methyl-4-isoxazolepropionic acid], the “TRAP induced platelet activation (PAC-1 antibody binding)” value is on record as “dose dependently increases”, the “platelet activation in response to TRAP after NHE inhibition” value is reported as “restores” and the “resting platelet activation (PAC-1 antibody binding)” value was “no affect”.

In the case of `N=C(N)NC(=O)c1nc(Cl)c(N)nc1N` [amiloride], the “TRAP induced platelet activation (PAC-1 antibody binding)” value (moderate TRAP (5 μM), platelets pre-incubated with substance) was “reduces”.

The values are drawn from US8603980B2, “Glutamate receptor antagonists and methods of use” (The Johns Hopkins University, priority 2007, dated 2013).
